Target: PIP4K2C (Homo sapiens, UniProt Q8TBX8)
Test: HiBiT PIP4K2C degradation assay in MOLT-4 cells (endogenous PIP4K2C C-terminally tagged with HiBiT)
Settings: read-out: HiBIT-degradation MOLT4 PIP4k2C 24 hours DC50; 24 hours incubation, MOLT-4, top concentration 10 micromolar
Text: Example B-2: HiBiT PIP4K2C degradation assay
Materials: MOLT-4, a human T lymphoblast cell line (see https://www.atcc.org/products/crl-1582, herein incorporated by reference in its entirety), was genetically engineered using CRISPR-Cas9 by Synthego Corporation (Redwood City, CA) to C-terminally tag endogenous PIP4K2C with HiBiT peptide. Following clonal selection, genotype was confirmed by Sanger sequencing. MO LT-4 were maintained using RPMI-1640 medium from Gibco (Grand Island, NY, catalog number 11875-085) supplemented with 10% fetal bovine serum (FBS) from VWR (Philadelphia, PA, catalog number 97068-085). For HiBiT assays the cells were resuspended in RPMI-1640 medium without phenol read from Gibco (Grand Island, NY, catalog number 11835-030) supplemented with 10% FBS. Nano-Glo® HiBiT Lytic Assay System was purchased from Promega (Madison, WI, Catalog number N3030). Cell culture flasks and 384-well microplates were purchased from Corning (Glendale, AZ).
To study PIP4K2C degradation, 384-well plates were plated with a 10-point dose response curve, 3-fold dilution, in duplicate with a top starting concentration of 10 micromolar. Subsequently 22,500 cells were added to each well and incubated at 37 C in 5% C02 for 24 hours or 6 hours. […] Luminescence was measured with a PHERAstar FSX plate reader (BMG Labtech, Cary, NC). […]

Sequences of proteins named here, by UniProt entry; tags and fusion partners are left off.
UniProt Q8TBX8, whole entry: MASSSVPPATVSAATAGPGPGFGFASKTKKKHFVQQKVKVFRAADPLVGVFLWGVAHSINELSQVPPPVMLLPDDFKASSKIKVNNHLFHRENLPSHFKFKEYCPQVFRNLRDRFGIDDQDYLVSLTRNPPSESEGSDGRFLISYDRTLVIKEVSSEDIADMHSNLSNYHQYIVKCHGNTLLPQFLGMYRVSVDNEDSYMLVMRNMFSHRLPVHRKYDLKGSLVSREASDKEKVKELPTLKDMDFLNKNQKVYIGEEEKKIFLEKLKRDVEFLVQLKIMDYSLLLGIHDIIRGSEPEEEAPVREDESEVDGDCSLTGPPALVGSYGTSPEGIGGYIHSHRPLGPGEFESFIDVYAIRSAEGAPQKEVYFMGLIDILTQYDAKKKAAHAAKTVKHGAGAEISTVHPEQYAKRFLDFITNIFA

Row | SMILES | DC50
1 | Cn1nc(C2CCC(=O)NC2=O)c2ccc(C3CCN([C@H]4CC[C@H](CNC(=O)[C@H]5CCC[C@@H](Nc6ncc(F)c(-c7cccc(-n8ccccc8=O)c7)n6)C5)CC4)CC3)cc21 (relative stereo) | < 500 nM
2 | O=C1CCC(n2c(=O)oc3cc(C4CCN(CCC5CCN(C(=O)[C@H]6CCC[C@@H](Nc7ncc(F)c(-c8cccc(-n9ccccc9=O)c8)n7)C6)CC5)CC4)ccc32)C(=O)N1 (relative stereo) | < 500 nM
